The source of these data is PMC8309108, “Rapid and Sensitive Quantification of Intracellular Glycyl-Sarcosine for Semi-High-Throughput Screening for Inhibitors of PEPT-1” (Pharmaceutics, 2021).

The target of the test is T1, PEPT-1 (Homo sapiens, UniProt P46059).
T1 construct: allowed to differentiate for at least 7 d to ensure sufficient PEPT-1 expression; host or cells: Caco-2
T1 sequence (P46059 1-708): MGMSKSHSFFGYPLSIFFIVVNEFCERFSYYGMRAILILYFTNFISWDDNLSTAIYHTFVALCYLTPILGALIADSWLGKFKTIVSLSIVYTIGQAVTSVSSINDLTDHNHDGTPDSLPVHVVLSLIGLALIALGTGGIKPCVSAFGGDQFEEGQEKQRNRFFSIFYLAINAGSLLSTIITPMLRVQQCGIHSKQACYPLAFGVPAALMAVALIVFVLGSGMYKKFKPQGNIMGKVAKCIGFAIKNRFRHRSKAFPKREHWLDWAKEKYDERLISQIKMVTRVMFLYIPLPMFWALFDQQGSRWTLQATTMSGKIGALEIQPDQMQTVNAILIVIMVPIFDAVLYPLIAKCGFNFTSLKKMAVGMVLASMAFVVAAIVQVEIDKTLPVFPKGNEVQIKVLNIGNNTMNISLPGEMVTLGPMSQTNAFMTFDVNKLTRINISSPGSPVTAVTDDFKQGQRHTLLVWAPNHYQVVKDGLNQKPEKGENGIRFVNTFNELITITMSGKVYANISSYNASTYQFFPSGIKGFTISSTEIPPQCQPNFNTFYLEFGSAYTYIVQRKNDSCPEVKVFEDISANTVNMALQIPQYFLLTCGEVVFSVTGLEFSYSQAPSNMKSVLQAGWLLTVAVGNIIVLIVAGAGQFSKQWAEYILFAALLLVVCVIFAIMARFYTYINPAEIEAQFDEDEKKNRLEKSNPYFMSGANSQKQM
The experiment in a line: Inhibition of PEPT-1 mediated Gly-Sar uptake in Caco-2 cells (UPLC-MS/MS quantification of intracellular Gly-Sar). It counts as cell-based. The conditions noted are these: representative study sample, incubation with 20 µM Gly-Sar and 1 mM losartan for 10 min. The procedure: Caco-2 cells were cultivated in DMEM supplemented with 10% FBS, glutamine (2 mM), penicillin (100 U/mL), streptomycin (100 µg/mL), and 1% NEAS. They were kept at 37 °C and 5% CO2 and passaged once a week. For validation and uptake experiments, cells were seeded in 96-well plates at a density of 6.25 × 10^4 cells/cm^2 and allowed to differentiate for at least 7 d to ensure sufficient PEPT-1 expression. The uptake buffer (MES) was prepared as previously described by Sun et al. and contained 50 mM MES, 136.9 mM NaCl, 5.4 mM KCl, 1.26 mM CaCl2, 0.81 mM MgSO4 × 7 H2O, 0.5 mM Na2HPO4, 0.44 mM KH2PO4, 0.42 mM NaHCO3, and 5.54 mM glucose. The pH value of the uptake buffer was adjusted to pH = 6.0 using either HCl or NaOH solutions. Gly-Sar uptake was tested after 7, 24, and 28 d of Caco-2 cell differentiation. […]
The quantification of Gly-Sar in cell homogenates was performed on a UPLC-MS/MS system consisting of a triple-stage quadrupole mass spectrometer (Waters Xevo TQ-XS with Z-spray ESI source) and an Acquity Classic UPLC® (Waters, Milford, MA, USA). […] Quantification of Gly-Sar and IS was performed by selected reaction monitoring (SRM) using argon collision gas for collision-induced dissociation (CID). […]

Regarding `CCCCc1nc(Cl)c(CO)n1Cc1ccc(-c2ccccc2-c2nn[nH]n2)cc1` [losartan], the “intracellular Gly-Sar concentration” value is 23.9 ng/mL.
